The conditions of this data set: 40× higher VEGF dose.

Turning to “vascular endothelial growth factor [VEGF]”, the “Brain concentration ratio, 200 vs. 5 ng/kg dose” value was found to be 4 ×.

For the origin of these results see US20210275640A1, “METHODS FOR ENHANCING PERMEABILITY TO BLOOD-BRAIN BARRIER, AND USES THEREOF” (ACADEMIA SINICA, priority 2014, published 2021).
